{"sequences": {"note": "Chains of the proteins cited; added tags and fusions are not shown.", "UniProt P24385, whole entry": "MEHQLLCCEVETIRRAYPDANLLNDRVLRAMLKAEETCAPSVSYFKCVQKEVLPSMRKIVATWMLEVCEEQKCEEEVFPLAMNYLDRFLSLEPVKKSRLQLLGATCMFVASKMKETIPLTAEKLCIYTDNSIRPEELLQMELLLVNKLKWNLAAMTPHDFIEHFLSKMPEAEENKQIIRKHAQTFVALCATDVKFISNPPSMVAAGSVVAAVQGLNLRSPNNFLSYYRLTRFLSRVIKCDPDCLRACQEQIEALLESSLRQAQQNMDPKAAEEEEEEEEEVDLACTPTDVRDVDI"}, "source": "patent US20140296484A1", "about": "“Cyclin Based Inhibitors of CDK2 and CDK4” (University of South Carolina, priority 2013, published 2014)", "biological_target": "CDK4/Cyclin D1 (Homo sapiens, UniProt P24385)", "assay": "In vitro kinase assay, 32P filter capture with GST-Rb substrate", "type": "biochemical"}
{"smiles": "CC[C@H](C)[C@H](NC(=O)[C@H](CC(C)C)NC(=O)[C@H](CCCNC(=N)N)NC(=O)[C@@H](N)CCCNC(=N)N)C(=O)N[C@@H](Cc1ccc(F)cc1)C(N)=O", "note": "[RRLIpfF]", "values": [{"measurement": "IC50", "value": 250, "unit": "µM"}]}
